# Assay results reported in ChEMBL document CHEMBL1127648, “Synthesis of 2-piperazinylbenzothiazole and 2-piperazinylbenzoxazole derivatives with 5-HT3 antagonist and 5-HT4 agonist properties” (J Med Chem, 1994).
# Chains of the proteins cited; added tags and fusions are not shown. Lines headed by an entry give the natural chain unless they say otherwise; changes in a name come on top.
# UniProt P61169, whole entry: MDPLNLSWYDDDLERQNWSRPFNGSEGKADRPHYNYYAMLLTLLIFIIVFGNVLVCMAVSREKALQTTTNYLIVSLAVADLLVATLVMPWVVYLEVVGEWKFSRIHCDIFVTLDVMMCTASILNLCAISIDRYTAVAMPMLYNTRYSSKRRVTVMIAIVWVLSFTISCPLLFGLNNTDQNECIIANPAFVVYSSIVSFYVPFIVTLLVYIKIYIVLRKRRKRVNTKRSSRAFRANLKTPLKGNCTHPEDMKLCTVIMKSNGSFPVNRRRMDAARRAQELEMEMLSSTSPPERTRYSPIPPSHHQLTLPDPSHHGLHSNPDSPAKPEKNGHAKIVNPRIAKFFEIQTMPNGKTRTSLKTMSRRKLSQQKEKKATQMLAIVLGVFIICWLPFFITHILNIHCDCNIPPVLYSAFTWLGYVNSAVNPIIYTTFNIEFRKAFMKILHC
# UniProt P35563, whole entry: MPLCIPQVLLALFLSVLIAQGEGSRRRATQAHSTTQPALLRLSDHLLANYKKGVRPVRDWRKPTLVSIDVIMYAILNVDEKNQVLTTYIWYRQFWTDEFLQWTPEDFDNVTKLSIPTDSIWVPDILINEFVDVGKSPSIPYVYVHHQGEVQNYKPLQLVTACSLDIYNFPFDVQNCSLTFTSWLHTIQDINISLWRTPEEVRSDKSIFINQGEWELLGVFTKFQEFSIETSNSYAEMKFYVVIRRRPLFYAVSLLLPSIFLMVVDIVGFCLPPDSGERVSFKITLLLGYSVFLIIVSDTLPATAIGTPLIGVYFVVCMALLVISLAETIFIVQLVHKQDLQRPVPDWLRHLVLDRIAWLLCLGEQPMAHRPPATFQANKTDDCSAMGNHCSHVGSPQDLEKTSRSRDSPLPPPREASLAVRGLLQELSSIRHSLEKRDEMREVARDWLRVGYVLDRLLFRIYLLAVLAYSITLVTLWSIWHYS
# UniProt Q9JJ16: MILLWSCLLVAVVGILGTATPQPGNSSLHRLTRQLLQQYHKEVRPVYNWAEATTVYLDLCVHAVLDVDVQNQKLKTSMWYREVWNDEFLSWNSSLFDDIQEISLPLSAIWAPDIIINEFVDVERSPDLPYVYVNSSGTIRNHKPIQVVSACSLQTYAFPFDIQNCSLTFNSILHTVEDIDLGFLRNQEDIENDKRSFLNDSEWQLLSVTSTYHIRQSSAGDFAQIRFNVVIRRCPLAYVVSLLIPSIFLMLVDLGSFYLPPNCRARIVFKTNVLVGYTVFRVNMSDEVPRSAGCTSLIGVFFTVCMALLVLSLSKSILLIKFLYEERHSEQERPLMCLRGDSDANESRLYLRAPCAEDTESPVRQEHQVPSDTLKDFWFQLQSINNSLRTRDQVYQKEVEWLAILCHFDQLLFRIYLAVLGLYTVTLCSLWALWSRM
# What was measured:
# D(2) dopamine receptor = D(2) dopamine receptor (Rattus norvegicus, UniProt P61169); experiment: Displacement of [3H]spiroperidol from D2 dopamine receptor
# [1] = target: Serotonin 3 (5-HT3) receptor (Rattus norvegicus, UniProt P35563+Q9JJ16); experiment: Inhibition of [3H]BRL-43694 binding to rat 5-hydroxytryptamine 3 receptor; type: protein-complex assay
structure (smiles),measurement,setting,value
COc1cc(N)c(Cl)cc1C(=O)NC1CCN(CCCOc2ccc(F)cc2)CC1OC (configuration not stated) [CISAPRIDE],IC50,D(2) dopamine receptor,0.068 µM
same,IC50,[1],0.09 µM
